Literature values, collected in patent US12042530B2, “Target peptides for immunotherapy and diagnostics” (University of Virginia Patent Foundation, priority 2012, dated 2024).

Test system: melanoma
Settings: reported; cited from earlier work

high-dose interleukin-2: FDA approved immune therapy for advanced melanoma
Objective response rate: 17%
